Patent publication US20060045884A1, “Vaccines for autoimmune and infectious disease” (Board of Regents, priority 2004, published 2006)

System: peptide-loaded T2 cells
Experiment: Induction of primary CTL responses with peptide-pulsed T2 cells and 4-hr cytotoxicity against peptide-loaded T2 cells
Type: cell-based, human
Conditions: E:T 50:1

## HTLV-1 Tax: HTLV-1 peptide (aa 11-19) with known high binding affinity to HLA-A2.1 [reference compound]
  specific lysis of T2 cells loaded with irrelevant peptide by CTL specific for either MY2 or MY4: < 20%
  specific lysis of T2 cells loaded with irrelevant peptide by CTL specific for either PR1 or PR-2: < 20%
